Target: glucocerebrosidase (taliglucerase alfa, recombinant GCase) (human) (UniProt P04062)

In the case of “α-synuclein, wild type (from UniProt P37840 1-140) (natural protein)”, the maximal inhibition of GCase activity (4MU-β-Glu, POPC/POPS vesicles) is reported as 76%.

From PMC3552326
